# Antibody variant affinities, Ab-14 light chain, assay B

From the AlphaSeq antibody data of Li et al. 2023 (doi:10.1038/s41467-023-39022-2), copy in the FLAb collection.

Target peptide (SARS-CoV-2 spike, HR2 region): PDVDLGDISGINAS

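Phage display of a naive human antibody library on the peptide gave the parent. The variants were designed computationally from a first round of random CDR variants and then made and measured. Their group label is 14L_GP_Gibbs (GP: Gaussian process model; Gibbs: Gibbs sampling; a sequence that several methods proposed may carry one label only). The scFvs were displayed on barcoded MATa yeast, the peptide on MATalpha yeast. The frequency of each diploid, read from paired DNA barcodes, reflects how well the two displayed proteins bind. Scores were corrected for input abundance and mapped to Kd with protein pairs of known affinity run in the same pool. There are six technical replicates.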

Each scFv is VH, three GGGGS repeats, VL, as in the parent Ab-14, and differs from it in the CDRs of the light chain only.
VH: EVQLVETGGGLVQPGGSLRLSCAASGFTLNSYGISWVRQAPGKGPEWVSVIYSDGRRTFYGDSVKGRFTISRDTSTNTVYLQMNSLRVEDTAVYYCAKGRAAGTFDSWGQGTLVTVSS
VL: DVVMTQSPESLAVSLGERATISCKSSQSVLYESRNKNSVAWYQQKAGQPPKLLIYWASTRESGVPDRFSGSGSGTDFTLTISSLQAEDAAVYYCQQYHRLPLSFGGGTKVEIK

Changes read parent residue, position, new residue, counted from the first residue of the VL shown. Affinities are written as log10 Kd with Kd in nM; a lower number is a better binder. A mean of the replicates is given; it leaves out those without a signal. A pair that was not seen in that replicate is written "nd"; this usually means weak binding, but a binder can also be missed. Empty control strains, which show no peptide, gave a signal in 4% of pairings with all light chain designs; the median was 2.64 and 95% of these signals were weaker than 1.59. No background was subtracted. The control count says in how many pairings with the empty strains this scFv gave a signal, with their mean in brackets. In the paper, a design with two or fewer of six values counts as a poor binder. Of ten entries with the parent sequence, four were seen in most replicates (averages 0.34 to 2.37), three in one and three in none, so single entries are noisy. The range of this assay differs from that of the first round, and the authors advise against merging the two.

changes,log10 Kd (nM) by replicate,"log10 Kd (nM), mean",control signals
S25V+Q27P+L30M+Y31G+E32W+S33M+W56N+E61R,1.07 / 1.25 / 1.27 / 0.90 / 1.54 / 1.63,1.28,3/18 (3.23)
S25M+V29M+L30W+N35A+K36S+W56N+T59N+E61L,-0.07 / -0.06 / -0.02 / -0.26 / -0.21 / -0.24,-0.14,1/18 (2.43)
S25M+S28A+V29W+L30W+N35M+N37W+W56N+T59E,0.22 / 0.46 / 0.11 / 0.07 / -0.09 / -0.02,0.12,0/18
S25F+S28Q+S33D+N35Q+K36A+W56N+T59Q+E61F,0.32 / 0.31 / 0.34 / 0.11 / 0.13 / 0.30,0.25,3/18 (3.32)
S25L+V29Q+L30E+W56N+S62T+S103E,2.07 / 1.74 / 2.72 / 1.89 / 3.06 / 3.27,2.46,1/18 (2.86)
K24L+S25L+Q27G+V29S+L30G+S33Q+W56D+E61L+Q96A,0.21 / 0.04 / 0.36 / 0.08 / 0.22 / 0.47,0.23,1/18 (2.25)
S25L+S26V+Q27N+V29E+N35Q+W56Q+T59Q+S62M,0.37 / -0.14 / 0.07 / -0.10 / 0.06 / 0.09,0.06,0/18
S25V+S26D+Q27S+S28A+L30N+E32G+S33Q+W56D+T59Q,-0.21 / -0.41 / -0.30 / -0.48 / -0.49 / -0.21,-0.35,0/18
S25L+S26M+Q27G+V29Q+N35W+S38A+W56E,0.86 / 1.73 / 0.88 / 1.47 / 1.00 / 1.12,1.18,0/18
S25L+S26E+Q27M+V29Q+L30P+W56H+T59V,-0.24 / -0.29 / -0.53 / -0.22 / -0.51 / -0.26,-0.34,1/18 (1.97)
S25Y+Q27F+V29D+L30G+Y31N+W56E,0.14 / 0.10 / -0.04 / -0.19 / -0.08 / 0.31,0.04,1/18 (2.51)
S25L+S26D+S28M+V29C+L30V+W56N,0.35 / 0.35 / 0.42 / 0.30 / 0.12 / 0.39,0.32,1/18 (2.24)
S25V+S26D+S38A+W56Q+Q96D,0.93 / 0.81 / 0.73 / 0.61 / 0.44 / 0.60,0.69,1/18 (2.10)
S25V+S26Q+V29E+Y31G+E32L+N37W+W56E+S62D,2.50 / nd / 0.87 / 1.43 / 1.96 / 1.56,1.67,0/18
S25L+S26Q+Q27P+V29E+S33E+K36D+W56Q+T59Q+Q96D,0.89 / 0.80 / 1.03 / 0.73 / 0.82 / 0.95,0.87,1/18 (2.23)
S25L+S26E+Q27G+L30E+N35W+W56H+T59V+S62V,0.86 / 0.81 / 1.03 / 1.26 / 1.41 / 1.17,1.09,5/18 (3.07)
S25L+S26M+Q27G+V29S+E32D+W56N+S62V,-0.06 / -0.25 / -0.24 / -0.42 / -0.39 / -0.10,-0.24,3/18 (2.96)
S25V+V29A+L30W+Y31M+S33E+K36F+W56N+S62E,0.35 / 0.11 / 0.14 / 0.08 / 0.23 / 0.34,0.21,1/18 (2.61)
S25V+Q27M+N35V+W56E+S58V+T59Q,1.15 / 1.04 / 0.98 / 0.79 / 1.24 / 1.85,1.18,0/18
S25L+V29N+L30G+N35M+W56N+T59Q+S62C,1.08 / 0.99 / 1.10 / 0.60 / 0.77 / 1.02,0.93,1/18 (2.68)
S25M+V29H+W56N+S62T,-0.03 / -0.30 / -0.06 / -0.42 / -0.13 / -0.10,-0.17,0/18
S25L+S26P+V29M+L30E+N37Q+W56A,0.10 / -0.07 / -0.26 / -0.14 / -0.10 / 0.14,-0.05,4/18 (3.91)
S25V+S26P+V29W+L30W+N35M+N37Q+W56N+T59E,0.47 / -0.02 / 0.01 / -0.42 / -0.05 / 0.10,0.02,0/18
S25L+Y31M+N35M+K36V+S38N+W56E+T59Q,0.40 / -0.35 / -0.35 / -0.44 / -0.15 / -0.41,-0.22,0/18
S33D+R34G+K36G+W56H+T59V+S62D+S103M,0.23 / 0.01 / 0.00 / 0.58 / 0.17 / 0.59,0.26,1/18 (1.70)
S25M+S28E+L30W+Y31L+K36V+W56M+T59C+S62D,0.60 / 1.17 / 0.71 / 0.52 / 0.71 / 0.75,0.74,0/18
S25Q+S26Q+V29G+L30M+Y31M+K36Q+W56H+E61L,0.39 / -0.13 / 0.24 / -0.02 / 0.08 / 0.65,0.20,0/18
S25L+S26R+V29C+L30E+S33D+S38N+W56M+T59Q+E61C,0.40 / 0.32 / 0.27 / 0.12 / 0.09 / 0.31,0.25,2/18 (2.03)
S25L+Y31G+E32W+S33W+W56N,0.40 / 0.37 / 0.08 / 0.11 / 0.09 / 0.30,0.23,5/18 (3.15)
S25L+Q27F+V29N+L30G+S33D+W56Q+T59Q+E61L+S62M,0.47 / 0.38 / 0.28 / 0.09 / 0.00 / 0.61,0.30,0/18
S25L+S26M+Q27G+V29M+L30Q+N35W+S38A+W56E,0.66 / 0.28 / 0.74 / 0.11 / 0.29 / 0.32,0.40,0/18
S25L+S28W+V29Q+Y31G+W56S+E61C,0.65 / 0.58 / 0.89 / 1.23 / 0.55 / 0.73,0.77,0/18
S25L+Q27C+V29Q+L30D+E32W+K36T+W56G,-0.25 / -0.39 / -0.33 / -0.42 / -0.35 / -0.19,-0.32,1/18 (2.69)
K24W+S25L+Q27M+L30E+E32Q+S38A+W56S,-0.43 / 0.24 / 0.00 / 0.20 / 0.50 / -0.41,0.02,0/18
Q27G+L30M+Y31G+S33D+R34W+W56Q+T59K,0.14 / -0.07 / 0.10 / -0.15 / 0.35 / 1.17,0.26,0/18
S25W+S26M+L30D+W56N+A57G+S58Q+S62E,0.12 / 0.17 / 0.00 / 0.09 / 0.21 / 0.28,0.14,0/18
S25L+S26Q+Q27M+V29E+L30G+S33Q+W56E+E61C+S62D,1.06 / 0.29 / 0.52 / 0.65 / 0.58 / 0.47,0.60,1/18 (2.88)
S25Y+S26P+Q27F+V29E+K36Q+W56E+T59Q+S62E,0.51 / 0.11 / 0.15 / 0.11 / 0.32 / 0.42,0.27,1/18 (2.06)
S25L+S28Q+V29G+L30H+E32G+K36A+S38N+W56N+T59Q+S62Q,0.49 / -0.05 / 0.02 / 0.25 / -0.02 / 0.31,0.17,0/18
K24Q+S25L+V29H+W56E+S62Q,-0.06 / -0.13 / -0.04 / -0.26 / -0.24 / -0.04,-0.13,1/18 (1.67)
S25L+V29D+L30N+K36H+W56H+T59C+E61C,1.28 / 1.12 / 0.91 / 0.91 / 0.77 / 0.80,0.97,0/18
S25F+S26M+K36L+S38N+W56H+A57G+E61S,0.30 / -0.02 / -0.07 / 0.02 / 0.22 / 0.17,0.10,1/18 (2.18)
S25I+S26Q+V29E+Y31Q+W56N+T59E,0.15 / 0.18 / -0.07 / 0.57 / -0.29 / 0.27,0.14,1/18 (2.19)
S25L+S26M+L30C+Y31M+W56N+T59K,nd / nd / nd / nd / nd / nd,nd,0/18
S25V+Q27Y+V29G+E32G+W56E+S103D,0.66 / 0.86 / 1.00 / 0.64 / 1.41 / 1.07,0.94,0/18
Q27N+V29T+S33D+R34G+N35M+W56N+T59K+E61M,0.62 / 0.51 / 0.55 / 0.49 / 0.42 / 0.69,0.55,1/18 (2.93)
S25M+V29W+Y31G+S33D+R34W+W56Q+T59Q,0.34 / 0.22 / 0.09 / 0.11 / 0.12 / 0.41,0.21,2/18 (2.76)
S25F+L30G+W56N+S58Q+E61M+S62E,0.45 / 1.60 / 0.77 / 0.90 / 0.72 / 0.65,0.85,1/18 (2.39)
S25V+S26E+Q27W+V29D+Y31L+N37Q+W56Q,0.32 / 0.07 / 0.14 / 0.16 / 0.24 / 0.28,0.20,1/18 (1.59)
S25V+S26E+Q27F+L30D+W56Q+S62K,0.07 / 0.09 / 0.34 / 0.08 / 0.38 / 0.23,0.20,0/18

4 of these entries, quoted again:

changes	log10 Kd (nM) by replicate	log10 Kd (nM), mean	control signals
S25V+S26E+Q27F+L30D+W56Q+S62K	0.07 / 0.09 / 0.34 / 0.08 / 0.38 / 0.23	0.20	0/18
S25L+S26R+V29C+L30E+S33D+S38N+W56M+T59Q+E61C	0.40 / 0.32 / 0.27 / 0.12 / 0.09 / 0.31	0.25	2/18 (2.03)
S25L+Q27C+V29Q+L30D+E32W+K36T+W56G	-0.25 / -0.39 / -0.33 / -0.42 / -0.35 / -0.19	-0.32	1/18 (2.69)
K24Q+S25L+V29H+W56E+S62Q	-0.06 / -0.13 / -0.04 / -0.26 / -0.24 / -0.04	-0.13	1/18 (1.67)